Measured values published in US20130136721A1, “Compositions and Methods of Generating a Differentiated Mesodermal Cell” (THE JOHNS HOPKINS UNIVERSITY, priority 2010, published 2013).

Tested on: H9 hESC
Assay: Beating hEB assay (contracting hEB after forced aggregation cardiac differentiation)
Assay type: cell-based, human
Details: supplement in d0-d2 medium; contracting hEB d9
From the text: The cardiac differentiation protocol was divided into four distinct phases for optimization (FIG. 3A): phase 1: uniform undifferentiated growth; phase 2: hEB formation/mesoderm induction; phase 3: hEB cardiac specification; phase 4: contracting cardiomyocyte development. A simple beating hEB assay was used to sequentially assess improvements in cardiac differentiation in each of these four phases by counting the number of hEB contracting after nine days of differentiation, a time point that was identified as the day of maximum percentage contraction in the enhanced ‘prototype’ version of the protocol (FIG. 1B). […] For each variable tested, the bell-curve distribution of dose-response was determined. […]
For forced aggregation hEB differentiations, confluent hESC or hiPSC which had been grown on a commercially available extracellular matrix, Geltrex (Invitrogen) as monolayers for 3 to 13 passages were passaged with TrypLE Select and seeded at 2.5×10^6 per T25 flask. […] Media was changed on d7 and every 3 days afterwards. hEB were visually assessed for contraction on d9 using a Nikon Eclipse Ti inverted tissue culture microscope with a TOKAI-HIT heated stage (Nikon). […]
One single replicate consists of one 96-well plate. […] Total number of hEB assessed in this work exceeds 80,000. […]

B1: BMP2: growth factor titrated between 1-100 ng mL-1 (protein, UniProt P12643 283-396, looked up)
Bone morphogenetic protein 2: QAKHKQRKRLKSSCKRHPLYVDFSDVGWNDWIVAPPGYHAFYCHGECPFPLADHLNSTNHAIVQTLVNSVNSKIPKACCVPTELSAISMLYLDENEKVVLKNYQDMVVEGCGCR
Which “effect on cardiac differentiation, phase 2 medium” value does the source give for B1 here?
The value was “none were found to have the same potency as BMP4”.
